These results are taken from US8324238B2.

The nature of this series: Solubility of various salts in distilled water, converted into free base (Example 4B). The note with it: room temperature, converted into the corresponding solubilities of free base.

In the case of Phthalate, the Solubility (as a rule, how much of the substance goes into solution per volume) was determined as 480 µg/mL.
